Assay results taken from ChEMBL document CHEMBL4014323, “Hydroxy-Substituted Heteroarylpiperazines: Novel Scaffolds for β-Arrestin-Biased D2R Agonists” (J Med Chem, 2017).

Amino acid sequences for entries named in this document (tags omitted).
UniProt P21918, whole entry: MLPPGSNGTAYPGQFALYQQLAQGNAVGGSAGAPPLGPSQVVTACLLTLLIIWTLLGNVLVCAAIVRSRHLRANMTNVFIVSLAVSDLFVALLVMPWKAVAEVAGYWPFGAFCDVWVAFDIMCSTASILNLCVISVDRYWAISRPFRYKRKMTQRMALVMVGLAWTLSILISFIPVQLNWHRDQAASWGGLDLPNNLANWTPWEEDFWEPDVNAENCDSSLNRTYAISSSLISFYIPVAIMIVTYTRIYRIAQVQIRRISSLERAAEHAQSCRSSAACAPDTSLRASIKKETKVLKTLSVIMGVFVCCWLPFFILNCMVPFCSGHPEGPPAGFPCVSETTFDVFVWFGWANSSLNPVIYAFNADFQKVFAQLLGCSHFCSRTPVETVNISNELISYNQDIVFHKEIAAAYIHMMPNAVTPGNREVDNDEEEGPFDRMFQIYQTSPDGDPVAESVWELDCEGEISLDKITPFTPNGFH
UniProt P21728, whole entry: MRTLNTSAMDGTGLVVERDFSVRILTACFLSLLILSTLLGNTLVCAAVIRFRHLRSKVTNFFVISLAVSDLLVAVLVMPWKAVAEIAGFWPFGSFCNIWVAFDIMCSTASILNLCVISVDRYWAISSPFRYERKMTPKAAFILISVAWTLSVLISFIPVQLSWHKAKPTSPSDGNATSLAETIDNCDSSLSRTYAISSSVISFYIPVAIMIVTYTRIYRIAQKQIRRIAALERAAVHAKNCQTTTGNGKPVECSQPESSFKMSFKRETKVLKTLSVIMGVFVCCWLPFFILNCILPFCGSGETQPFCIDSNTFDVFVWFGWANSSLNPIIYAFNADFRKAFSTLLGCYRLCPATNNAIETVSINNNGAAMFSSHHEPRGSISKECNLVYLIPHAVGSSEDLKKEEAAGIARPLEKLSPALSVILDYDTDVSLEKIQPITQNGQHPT

How the values were obtained:
[1] = biological target: D(1B) dopamine receptor (Homo sapiens, UniProt P21918); assay: biochemical
[2] = biological target: D(1A) dopamine receptor (Homo sapiens, UniProt P21728); assay: biochemical

Ki [1]: 1100 nM
Ki [2]: 340 nM
SMILES: O=C1CCc2ccc(OCCCCN3CCCN(c4cccc(Cl)c4Cl)CC3)cc2N1
